{"source": "patent US12383579B2", "about": "“Materials and methods of using an inhibitor of plasminogen activation to treat anastomotic leak” (THE UNIVERSITY OF CHICAGO, priority 2018, dated 2025)", "test_system": "E. faecalis V583-induced AL", "details": "non-leaking mice, TXA versus vehicle, POD 8", "data": [{"smiles": "NC[C@H]1CC[C@H](C(=O)O)CC1", "note": "[TXA, tranexamic acid]", "values": [{"measurement": "hematoxylin and eosin staining: mucosal healing, inflammatory infiltrate", "value": "no discernible difference in mucosal healing or inflammatory infiltrate"}]}]}
